From patent US5114935A, “Substituted 6-benzyl-2H-3,4,5,6-tetrahydro-(1,3)-oxazines” (Dr. Karl Thomae GmbH, priority 1989, dated 1992)

System: opiate receptors
Test: Test of Binding to the Opiate Receptor: saturation test with 3H-diprenorphine (Scatchard analysis)
Settings: read-out: KD value

COC12CCC3(CC1C(C)(C)O)C1Cc4ccc(O)c5c4C3(CCN1CC1CC1)C2O5 (stereo not shown)
Kd: 0.51 nM
